Target: PRC2-Ezh2 (Homo sapiens, UniProt O75530)
Assay: HKMT assay, stimulation of PRC2-Ezh2 by histone peptides
Format: biochemical
Conditions: read-out: half maximum stimulation of PRC2 activity; H3K27me3 peptide, Fig. S7

Chains of the proteins cited; added tags and fusions are not shown.
UniProt O75530, whole entry: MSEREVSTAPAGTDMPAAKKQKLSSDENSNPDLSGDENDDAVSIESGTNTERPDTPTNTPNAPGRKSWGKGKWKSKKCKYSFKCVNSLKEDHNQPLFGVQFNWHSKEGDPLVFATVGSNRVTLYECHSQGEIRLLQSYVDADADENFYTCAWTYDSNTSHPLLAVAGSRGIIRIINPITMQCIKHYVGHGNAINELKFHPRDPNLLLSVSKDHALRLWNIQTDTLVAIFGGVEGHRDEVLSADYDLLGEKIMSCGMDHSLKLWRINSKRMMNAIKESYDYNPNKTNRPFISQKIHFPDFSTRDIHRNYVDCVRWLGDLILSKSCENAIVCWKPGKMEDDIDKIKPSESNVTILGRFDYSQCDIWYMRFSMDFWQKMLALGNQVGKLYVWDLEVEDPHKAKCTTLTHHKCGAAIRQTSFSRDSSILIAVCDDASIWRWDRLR

EC50: 30 to 40 µM
Substance: H3K27me3: synthetic histone H3 peptide trimethylated on lysine 27 (TKAARKSAPAT; trimethyl-Lys27 of mature H3)
